Consider one molecule from US20140170237A1, “ANTIMICROBIAL COMPOSITIONS CONTAINING MIXTURES OF FATTY AND HYDROXYL CARBOXYLIC ACIDS” (priority 2012, published 2014).

Entries after “also recorded” stand apart in the source; their conditions may differ.

The nature of the series: Cold solubility / 4 C storage of commercial fatty acids and their mixtures. The class given is physicochemical. Conditions: 1 day, no solvent or surfactant.

As for `CCCCCCCCC(=O)O` [C9, nonanoic acid], the “4 C. Storage, physical state” value is given as “solid or formed crystals; also recorded: Crystallized”.
